Target: GLP1R (UniProt P43220)
Assay: cell-based or functional assay

Activity: 0.14 nM
Substance: Ex4-Cys40-FA1 (peptide)

From patent publication US20160287713A1 (CALIFORNIA INSTITUTE FOR BIOMEDICAL RESEARCH, published 2016)
